Experimental data: PubChem BioAssay AID696 (Sanford-Burnham Center for Chemical Genomics, 2007)
The list shows a part of the results, in another mix than the full data. Some results for these compounds are left out of this collection, so the calls shown say nothing about other tests. Active and inactive are the calls of the source. No stated cut-off is given here; in the data, active means activation fold above about 2; inactive means the rest.

Amino acid sequences for entries named in this document (tags omitted).
UniProt P05187, whole entry: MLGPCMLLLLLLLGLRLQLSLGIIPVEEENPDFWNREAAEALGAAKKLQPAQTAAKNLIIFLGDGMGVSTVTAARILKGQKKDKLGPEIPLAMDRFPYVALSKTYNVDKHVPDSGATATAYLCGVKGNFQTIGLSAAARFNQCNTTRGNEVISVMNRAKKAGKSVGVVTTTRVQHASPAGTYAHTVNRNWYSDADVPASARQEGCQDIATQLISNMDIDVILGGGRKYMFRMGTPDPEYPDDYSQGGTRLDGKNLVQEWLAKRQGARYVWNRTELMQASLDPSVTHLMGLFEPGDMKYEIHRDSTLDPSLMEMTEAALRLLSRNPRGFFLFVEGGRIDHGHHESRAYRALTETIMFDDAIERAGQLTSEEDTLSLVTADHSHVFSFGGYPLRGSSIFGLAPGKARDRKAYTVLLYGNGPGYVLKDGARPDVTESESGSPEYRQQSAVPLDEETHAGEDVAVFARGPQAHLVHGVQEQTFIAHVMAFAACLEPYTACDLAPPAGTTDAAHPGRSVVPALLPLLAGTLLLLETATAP

biological target: Alkaline phosphatase, placental type (Homo sapiens) (UniProt P05187); assay: activation of human placental alkaline phosphatase – biochemical, luminescence, HTS (AID 696); conditions: purified PLAP enzyme, luminescent substrate read-out; at 20 µM; active compounds read high

| Compound | activation fold |
| --- | --- |
| CC(C)N1C(=O)CC2(CCN(CCOC(=O)C(O)(c3ccccc3)c3ccccc3)CC2)C1=O | inactive: 1.4 |
| CN(C)c1cccc(C(=O)NCC2(N(C)C)CCCCC2)c1 | inactive: 0.9 |
| O=C(OC1CN2CCC1CC2)C(CO)(c1ccccc1)c1ccccc1 (stereo not drawn) | inactive: 1.2 |
